{
  "sequences": {"note": "Chains of the proteins cited; added tags and fusions are not shown. Lines headed by an entry give the natural chain unless they say otherwise; changes in a name come on top.", "UniProt P14867": "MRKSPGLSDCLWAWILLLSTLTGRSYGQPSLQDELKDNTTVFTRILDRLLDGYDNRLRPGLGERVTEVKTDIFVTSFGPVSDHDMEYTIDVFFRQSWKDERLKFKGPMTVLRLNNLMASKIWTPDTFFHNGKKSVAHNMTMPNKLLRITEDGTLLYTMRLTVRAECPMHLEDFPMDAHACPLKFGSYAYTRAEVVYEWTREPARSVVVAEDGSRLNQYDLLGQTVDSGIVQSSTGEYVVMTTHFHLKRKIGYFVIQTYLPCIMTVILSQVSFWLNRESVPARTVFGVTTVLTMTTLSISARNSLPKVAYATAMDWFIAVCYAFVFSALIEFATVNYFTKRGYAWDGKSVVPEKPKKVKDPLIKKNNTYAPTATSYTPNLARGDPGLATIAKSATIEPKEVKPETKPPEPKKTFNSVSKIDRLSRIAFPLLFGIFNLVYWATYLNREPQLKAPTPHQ", "UniProt P47870": "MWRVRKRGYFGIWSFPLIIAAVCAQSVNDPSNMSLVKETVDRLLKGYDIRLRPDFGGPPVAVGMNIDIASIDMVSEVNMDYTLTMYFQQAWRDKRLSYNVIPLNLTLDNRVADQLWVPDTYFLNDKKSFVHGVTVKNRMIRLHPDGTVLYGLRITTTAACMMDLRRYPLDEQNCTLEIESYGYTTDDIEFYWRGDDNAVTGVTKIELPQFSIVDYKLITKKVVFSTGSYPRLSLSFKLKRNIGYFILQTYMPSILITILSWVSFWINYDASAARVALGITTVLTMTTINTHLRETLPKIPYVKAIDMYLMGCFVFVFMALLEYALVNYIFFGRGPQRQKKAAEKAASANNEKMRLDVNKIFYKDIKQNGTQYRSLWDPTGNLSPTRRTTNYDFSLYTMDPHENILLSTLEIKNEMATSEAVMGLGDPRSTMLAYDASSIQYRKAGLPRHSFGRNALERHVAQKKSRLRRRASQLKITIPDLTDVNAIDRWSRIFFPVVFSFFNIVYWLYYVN", "UniProt P18507": "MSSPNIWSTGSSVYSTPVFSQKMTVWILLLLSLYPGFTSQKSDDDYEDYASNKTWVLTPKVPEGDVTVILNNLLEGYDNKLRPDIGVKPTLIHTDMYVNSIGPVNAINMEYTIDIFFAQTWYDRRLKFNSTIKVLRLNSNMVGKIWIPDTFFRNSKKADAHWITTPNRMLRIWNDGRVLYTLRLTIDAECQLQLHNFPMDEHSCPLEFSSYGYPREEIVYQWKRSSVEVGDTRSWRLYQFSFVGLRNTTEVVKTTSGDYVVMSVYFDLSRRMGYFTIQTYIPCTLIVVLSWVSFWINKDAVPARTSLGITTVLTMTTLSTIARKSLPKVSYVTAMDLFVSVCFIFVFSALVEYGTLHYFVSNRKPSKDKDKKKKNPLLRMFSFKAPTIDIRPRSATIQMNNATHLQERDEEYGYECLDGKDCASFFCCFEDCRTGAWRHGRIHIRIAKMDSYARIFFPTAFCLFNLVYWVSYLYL"},
  "source": "ChEMBL document CHEMBL3286229",
  "about": "(J Med Chem, 2014)",
  "target": "GABA-A receptor; alpha-1/beta-2/gamma-2 (Homo sapiens) (UniProt P14867+P47870+P18507)",
  "assay": "Modulation of GABAA alpha1beta2gamma2S receptor (unknown origin) expressed in Xenopus laevis oocytes assessed as modulation of GABA-induced chloride ion current at holding potential -70 mV at 100 uM by two-microelectrode voltage clamp assay relative to GABA-treated control",
  "format": "cell-based",
  "data": [
    {"smiles": "CCCN(CCC)C(=O)c1cccc2cc3c(cc12)OCO3", "values": [
      {"measurement": "Activity", "result": 334, "unit": "%"}
    ]},
    {"smiles": "CCCN(CCC)C(=O)/C=C/C=C/c1ccc2c(c1)OCO2", "values": [
      {"measurement": "Activity", "result": 1090, "unit": "%"}
    ]}
  ]
}
